Literature values, collected in article PMC5328659 (Journal of clinical toxicology, 2016).

Details: following 2.85 mg/kg DZP administration; ref not given; cited from earlier work

Compound: O=C1CN=C(c2ccccc2)c2cc(Cl)ccc2N1 [desmethyl DZP]
- Brain disappearance half-life: approximately 3 h
